Here are results for one molecule from publication PMC12336229, “Peptide-mimetics derived from leucyl-tRNA synthetase are potential agents for the therapy of mt-tRNA related diseases” (Frontiers in Pharmacology, 2025).

The series can be described thus: in vivo. Further details: species or system C57BL/6 mice. The conditions noted are these: male, C57BL/6J, mouse, iv, 4.15 ug, In vivo uptake of 64Cu-PMT, SUVmean. The source says:
Two-month-old male C57BL/6J mice were purchased from ENVIGO RMS S. r.l. (San Pietro al Natisone, Italy). All animals were housed in the San Raffaele Research Institute (Milan) animal facility under constant temperature and humidity, with a 12-h light/dark cycle and access to food and water ad libitum and environmental enrichment. Experimental procedures involving the use of animals complied with the EU Directive 2010/63/EU for animal experiments and have been approved by the Ethical Committees of the San Raffaele Research Institute (Milan) and the Italian Ministry of Health (license n. 717/2021-PR). The study was conducted in compliance with the ARRIVE 2.0 guidelines.
Sixty adult C57BL/6 male mice were initially included in the study. Twenty animals were dedicated to in vivo/ex vivo biodistribution of the radiolabelled PMT ^64Cu-PMT. […]
PET-CT imaging was performed using β-Cube® and γ-Cube® (Molecubes, Gent, NE), respectively, equipped with the mouse Hotel insert hosting up to four mice simultaneously. A group of 5 animals were injected into the caudal vein with the radiopharmaceutical ^64Cu-PMT (mean injected radioactivity of 3.62 ± 1.03 MBq, corresponding to mean injected mass of 4.15 ± 0.53 µg) and subjected to PET-CT acquisition at 1, 3, 24 and 48 h after injection. […] Temperature was maintained constant, and respiratory and cardiac rates were monitored. […]

The molecule `CC[C@@H](C)[C@@H](NC(=O)[C@@H](CC(C)C)NC(=O)[C@@H](C)NC(=O)[C@H](NC(=O)[C@@H](CCCNC(=N)N)NC(=O)[C@H]1CCCN1C(=O)[C@@H](CO)NC(=O)[C@@H](CC(C)C)NC(=O)[C@@H](Cc1ccccc1)NC(=O)[C@@H](CO)NC(=O)[C@@H](CCCCN)NC(=O)[C@H](N)CCCCN)[C@H](C)O)C(=O)N[C@H](CC(N)=O)C(=O)N[C@H](Cc1ccccc1)C(=O)N[C@H](CC(C)C)C(=O)N[C@@H](C(=O)N[C@H](CSC1CC(=O)N(CCNC(=O)CN2CCN(CC(=O)O)CCN(CC(=O)O)CC2)C1=O)C(N)=O)C(C)C` (stereo partly shown) [^64Cu-PMT, metal not drawn] yielded an SUV at 48 h of 0.137 ± 0.04 SUV.
